Experimental data taken from patent US7514240B2, “EGR-EGFR complex” (Japan Science and Technology Agency, priority 2002, dated 2009).

Experiments:
[1] = system: extracellular signal-regulated protein kinases (ERK); test: EGF-dependent ERK phosphorylation in CHO cells expressing variant EGFR; assay type: cell-based, Chinese hamster; settings: transiently transfected CHO cells, human EGF stimulation for 5 minutes
Procedure: The site-directed mutagenesis method was performed using the QuickChange® site-directed mutagenesis kit according to the instructions of the manufacturer (Stratagene). The mutation in the EGFR sequence was confirmed by DNA sequence analysis. CHO cells were cultured in Minimum Essential Medium α supplemented with 10% calf serum. By using the FuGENE6 method according to the manufacturer's recommendation (Roche), the cells were transfected with an expression vector carrying the wild type or variant receptor.
The expression of EGFR and the downstream ERKs activation in the transiently transfected CHO cells were determined according to Kim et al (Kim, J.-H. et al., Eur. J. Biochem. 269: 2323-2329, 2002). Moreover, immunoblot analyse were performed using an anti-EGFR polyclonal antibody (Upstate Biotechnology), an anti-phosphorus-p44/42 MAP kinase E10 monoclonal antibody, and an anti-MAP kinase polyclonal antibody (Cell Signaling Technology).

EGFR = test: EGF-induced autophosphorylation of EGFR in transfected CHO cells; assay type: cell-based; settings: transiently transfected CHO cells
Procedure: (§1) EGFR autophosphorylation was determined by the method previously reported by Sato et al (Sato, C. et al., J. Biochem (Tokyo) 127: 65-72, 2000). As for the EGF-binding assay, the transiently transfected cells were maintained for 24 hours in a 24-well plate coated with fibronectin, and then starved for 24 hours in serum-free medium. […] Subsequently, the cells were lysed in 0.5 ml of 0.5 M NaOH, and then radioactivity was measured using a γ counter.

human EGF = test: 125I-labeled EGF-binding assay on CHO cells expressing variant EGFR; settings: 2 nM 125I-labeled EGF, 1 hour; transiently transfected CHO cells
Procedure: as §1

Substance | EGF-dependent ERK phosphorylation (biological activity of variant EGFR) [1] | EGF-induced EGFR autophosphorylation (EGFR) | affinity for EGF in 125I EGF-binding assay (human EGF)
F263A: EGFR variant, substitution of Phe263 with Ala | negligible effects |  | 
R285S/F263A: EGFR variant generated by a combination of R285S mutation with F263A | almost complete loss of the activity | incapable of EGFR autophosphorylation | much lower affinity for EGF
R285S/Y251A: EGFR variant generated by a combination of R285S mutation with Y251A | almost complete loss of the activity | incapable of EGFR autophosphorylation | much lower affinity for EGF
R285S: full-length EGFR variant, substitution of Arg285 with Ser | reduced the biological activity |  | 
R285Y: full-length EGFR variant, substitution of Arg285 with Tyr | negligible effect |  | 
Y251A: EGFR variant, substitution of Tyr251 with Ala | negligible effects |  | 
substitution of Arg405 with Glu: EGFR variant, substitution of Arg405 of domain III with Glu | abolished | abolished | abolished
